The values that follow come from paper PMC7723054.

What all share (experiment): FOREST: bead pull-down of RNA structure library v1, barcode microarray; U1A/LIN28A: 20 mM HEPES pH 7.5, 80 mM KCl, 20 mM NaCl, 10% glycerol, 2 mM DTT, 0.1 ug/uL BSA, 4 C; BG4/CIRBP/DHX36: 10 mM Tris-HCl pH 7.5, 100 mM KCl (or LiCl),; high values mean tight binding
Test [1] addresses U1A (Homo sapiens, UniProt P09012).
The target of test [2] is T1, LIN28A (human?, UniProt Q9H9Z2 1-209).
T1 sequence: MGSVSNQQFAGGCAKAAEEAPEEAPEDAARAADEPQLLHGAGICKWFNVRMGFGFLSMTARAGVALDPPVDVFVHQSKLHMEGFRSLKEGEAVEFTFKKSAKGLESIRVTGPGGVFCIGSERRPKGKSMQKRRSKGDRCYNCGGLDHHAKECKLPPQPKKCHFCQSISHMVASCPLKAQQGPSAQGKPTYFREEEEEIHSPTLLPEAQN

The target in test [3] is T2, CIRBP (Homo sapiens, UniProt Q14011 1-172).
T2 sequence: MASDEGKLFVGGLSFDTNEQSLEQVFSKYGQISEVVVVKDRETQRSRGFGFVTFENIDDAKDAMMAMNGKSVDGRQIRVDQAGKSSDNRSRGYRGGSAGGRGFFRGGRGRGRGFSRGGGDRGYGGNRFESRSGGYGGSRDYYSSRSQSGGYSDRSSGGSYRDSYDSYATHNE

The target in test [4] is T3, DHX36 (Homo sapiens, UniProt Q9H2U1 1-1008).
T3 sequence: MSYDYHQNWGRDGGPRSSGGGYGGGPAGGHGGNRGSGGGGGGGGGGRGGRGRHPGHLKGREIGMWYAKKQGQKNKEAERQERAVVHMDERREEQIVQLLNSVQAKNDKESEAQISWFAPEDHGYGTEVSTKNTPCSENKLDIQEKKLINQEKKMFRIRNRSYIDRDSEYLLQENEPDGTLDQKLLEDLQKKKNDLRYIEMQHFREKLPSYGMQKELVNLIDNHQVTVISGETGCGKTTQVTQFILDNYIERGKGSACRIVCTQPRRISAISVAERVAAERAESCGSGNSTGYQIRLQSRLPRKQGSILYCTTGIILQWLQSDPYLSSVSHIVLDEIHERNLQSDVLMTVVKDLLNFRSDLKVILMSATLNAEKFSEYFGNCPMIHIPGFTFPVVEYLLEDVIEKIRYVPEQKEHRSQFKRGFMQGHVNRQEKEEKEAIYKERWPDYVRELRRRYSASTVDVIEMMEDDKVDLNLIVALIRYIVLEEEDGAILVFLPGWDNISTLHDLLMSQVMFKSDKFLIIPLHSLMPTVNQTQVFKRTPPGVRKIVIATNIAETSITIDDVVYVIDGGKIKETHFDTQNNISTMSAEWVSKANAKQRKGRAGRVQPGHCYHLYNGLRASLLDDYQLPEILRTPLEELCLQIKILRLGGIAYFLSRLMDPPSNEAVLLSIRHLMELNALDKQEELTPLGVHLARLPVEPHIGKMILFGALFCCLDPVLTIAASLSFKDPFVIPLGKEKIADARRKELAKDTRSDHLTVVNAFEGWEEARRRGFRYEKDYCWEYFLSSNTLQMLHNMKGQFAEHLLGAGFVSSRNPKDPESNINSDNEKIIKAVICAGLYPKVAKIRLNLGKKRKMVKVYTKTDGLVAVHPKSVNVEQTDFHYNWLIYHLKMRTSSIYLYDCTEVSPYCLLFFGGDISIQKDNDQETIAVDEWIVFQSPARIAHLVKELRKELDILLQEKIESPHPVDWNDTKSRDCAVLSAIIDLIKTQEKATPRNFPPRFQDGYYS

Some of the results follow.

B1: hsa-mir-6075 (structured_RNA)
RNA: GGGACCCACCGCUAGGAGCAGAGGAUUAGGUGUACGAAGUUUCAGCCCUGCCUGCCCUCCAGGUCAUGUUCCAGUGUCCCACAGAUGCAGCACCACGGGCUGAAGCUUCGUGCAC
For the molecule B1, the binding signal in test [1] was 0.798 z-score; in test [2], 0.792 z-score; in test [3], 0.449 z-score; in test [4] it was 1.24 z-score.

B2: hsa-mir-6511b-1_6511b-2_6511a-2_6511a-3_6511a-1_6511a-4 (structured_RNA)
RNA: GGGACACAUAUAGACCGGGUCCAAGUAAGGUGUACGAAGUUUCAGCGACAGGGCAGAGGGUUGCGCCCCCUCGCUGAAGCUUCGUGCAC
With B2, the binding signal in test [1] was 0.778 z-score; in test [2], 0.706 z-score; in test [3] it was -0.637 z-score; in test [4] it was 0.52 z-score.

B3: hsa-mir-8083 (structured_RNA)
RNA: GGGAACUAGGCAUUACGGUAACGACAAGGGUGUACGAAGUUUCAGCAACUGUGCGGCCGGCCACACCGUCACACCGGGUGCUGAAGCUUCGUGCAC
As for B3, the binding signal in test [1] came out at 0.782 z-score; in test [2] it was 1.34 z-score; in test [3], 1.36 z-score; in test [4], 0.638 z-score.

B4: hsa-mir-26a-1 (structured_RNA)
RNA: GGGAGUACUAGCAGAAGCUGGGCUCACCGGUGUACGAAGUUUCAGCUAGGCUGUGCAGGUCCCAAUGGGCCUAGCUGAAGCUUCGUGCAC
In the case of B4, the binding signal in test [1] is 0.795 z-score; in test [2], -0.849 z-score; in test [3], -1.37 z-score; in test [4] it was -0.79 z-score.

B5: hsa-mir-5696 (structured_RNA)
RNA: GGGAAUUCGCAUCCCUUGGCACCUGAUCGGUGUACGAAGUUUCAGCUGCCUACUACUGAUGACAUACAAUGUAAGUGCUCAUUUAGGCGGCUGAAGCUUCGUGCAC
As to B5, the binding signal in test [1] is 0.778 z-score; in test [2], -2.02 z-score; in test [3], -1.34 z-score; in test [4], -1.07 z-score.

B6: hsa-mir-892a (structured_RNA)
RNA: GGGAAAAGACAGACCACGAGUCGACCAUGGUGUACGAAGUUUCAGCAGUCACUUACACUACAUGUCACUGCUGAAGCUUCGUGCAC
For the molecule B6, the binding signal in test [1] was 2.29 z-score; in test [2] it was -0.273 z-score; in test [3], 0.585 z-score; in test [4], 0.227 z-score.

B7: hsa-mir-1227 (structured_RNA)
RNA: GGGAAACGUAGGAACCGACCGCUAGCUUGGUGUACGAAGUUUCAGCGUGGUGGGCACUGCUGGGGUGGGCACAGCAGCCAUGCAGAGCGGGCAUUUGACCCCGUGCCACCCUUUUCCCCAGGCUGAAGCUUCGUGCAC
Turning to B7, the binding signal in test [1] was 0.795 z-score; in test [2], -0.223 z-score; in test [3], -0.238 z-score; in test [4], 0.982 z-score.

B8: hsa-mir-7112 (structured_RNA)
RNA: GGGAAAGUAUCGUGAGCCCUCAAAGCUGGGUGUACGAAGUUUCAGCCCUGCAGGUGAGAGCGGGAACACCUGCAUGCUGAAGCUUCGUGCAC
As to B8, the binding signal in test [1] is 0.765 z-score; in test [2], 1.08 z-score; in test [3], 0.0924 z-score; in test [4], -0.129 z-score.

B9: hsa-mir-642b (structured_RNA)
RNA: GGGAAAAUGAGCCCUUACCCCUAAAGCCGGUGUACGAAGUUUCAGCGUCUUGAUCCCCCACCCCAAGACGCUGAAGCUUCGUGCAC
As to B9, the binding signal in test [1] was 0.766 z-score; in test [2] it was -2.04 z-score; in test [3] it was 0.127 z-score; in test [4] it was -0.334 z-score.

B10: hsa-mir-3925 (structured_RNA)
RNA: GGGCAUGAUUGGUCCCCAUGACUAGCAUGGUGUACGAAGUUUCAGCGAGCCUGUCACAUCUCCAGACUCGCUGAAGCUUCGUGCAC
As for B10, the binding signal in test [1] is 2.29 z-score; in test [2], -1.52 z-score; in test [3] it was -0.857 z-score; in test [4], -1.43 z-score.

B11: hsa-mir-559 (structured_RNA)
RNA: GGGAUGUAUCCCCGUCACGCCUAAUUCGGGUGUACGAAGUUUCAGCAAAAUUACUUUUGGUAAAUACAGUUUUGCUGAAGCUUCGUGCAC
As to B11, the binding signal was 0.796 z-score in test [1], -1.11 z-score in test [2], -1.41 z-score in test [3] and -0.661 z-score in test [4].

B12: hsa-mir-4760 (structured_RNA)
RNA: GGGAGCUGGGCUAAUGGUGUCAAAUCCCGGUGUACGAAGUUUCAGCAGUUAGAAUUCUUAAGUAUCAAAACUAAAUGCUGAAGCUUCGUGCAC
On to B12, for which the binding signal in test [1] was 0.799 z-score; in test [2], 0.345 z-score; in test [3] it was 0.724 z-score; in test [4], -0.176 z-score.

B13: hsa-mir-5692b (structured_RNA)
RNA: GGGAAUGGACAGAUGCGGCAGGUCGAUAGGUGUACGAAGUUUCAGCGUGUUCACACAUAAUGUGUACACCAUGUGUGUACACGCUGAAGCUUCGUGCAC
As to B13, the binding signal was 0.783 z-score in test [1], 0.805 z-score in test [2], 0.0476 z-score in test [3] and 2.3 z-score in test [4].

B14: hsa-mir-27a (structured_RNA)
RNA: GGGAAGACCUCGGGGAGAACGCAAAUCUGGUGUACGAAGUUUCAGCUGAGCAGGGUCCACACCAAGUCGUGUUCAGCUGAAGCUUCGUGCAC
As for B14, the binding signal in test [1] is 0.807 z-score; in test [2], -0.459 z-score; in test [3], -0.326 z-score; in test [4], -0.214 z-score.

B15: hsa-mir-640 (structured_RNA)
RNA: GGGAACACGCUGGAAAGGACGAUUGUUAGGUGUACGAAGUUUCAGCUCAGACACAUCAGAUCCCUUAUCUGUAAAAUGGGCAUGAGCUGAAGCUUCGUGCAC
B15: the binding signal in test [1] was 0.813 z-score; in test [2], 0.92 z-score; in test [3], -0.5 z-score; in test [4] it was 0.546 z-score.

B16: NEAT1_ParasoR_ID43 (structured_RNA)
RNA: GGGAAUACACCACUCGUCCUUGUGUGCUGGUGUACGAAGUUUCAGCUGGUCAUAUAUAUGAGUUCUACAGUAGUGAAGUCUGAGAUUUUACUACACCUUCCACUUAUGUGGUCCCACACCAGCUGAAGCUUCGUGCAC
Consider B16, for which the binding signal in test [1] was 0.775 z-score; in test [2], 0.591 z-score; in test [3] it was -0.759 z-score; in test [4] it was 0.571 z-score.

B17: hsa-mir-4516 (structured_RNA)
RNA: GGGAAAGUCGCGGGAUUAUAGUAAGCAUGGUGUACGAAGUUUCAGCGGGCAGGGAGGGCAGGGCAGGCUCUGGGGUGGGGGGUCUGUGAGUCAGCCACGGCUCGCUGAAGCUUCGUGCAC
As to B17, the binding signal in test [1] was 0.775 z-score; in test [2], 0.628 z-score; in test [3], 5.32 z-score; in test [4] it was 5.33 z-score.

B18: hsa-let-7c (structured_RNA)
RNA: GGGAACGGGUCAACGGCUAGAUGUCAAAGGUGUACGAAGUUUCAGCAUGGUUUAGAGUUACACCCUGGGAGUUAACUGUGCUGAAGCUUCGUGCAC
With B18, the binding signal in test [1] was 0.772 z-score; in test [2], 2.22 z-score; in test [3] it was 1.06 z-score; in test [4], 2.07 z-score.

B19: hsa-mir-6786 (structured_RNA)
RNA: GGGAACCGCACGUUAAGGGACAUUUAGCGGUGUACGAAGUUUCAGCGCGUCACGUGCACCCAAGUGACGCGCUGAAGCUUCGUGCAC
Turning to B19, the binding signal in test [1] was 4.1 z-score; in test [2], -1.39 z-score; in test [3] it was -0.5 z-score; in test [4], -0.631 z-score.

B20: hsa-mir-6832 (structured_RNA)
RNA: GGGAAGUGAGGUAUGGAAUUUGACUAGGGGUGUACGAAGUUUCAGCGGGUCAGUGGCAGAGCCAGGCAGAUGCUGACCCGCUGAAGCUUCGUGCAC
Consider B20, for which the binding signal in test [1] amounted to 0.813 z-score; in test [2], 0.955 z-score; in test [3], 1.04 z-score; in test [4], 1.03 z-score.

B21: hsa-mir-548q (structured_RNA)
RNA: GGGAAGGCGGUGACCAUGUGUUCGGAAGGGUGUACGAAGUUUCAGCGCGGUUUUUGCCAUUACUUUUCAUUUUUACCAUUAAAAGUAAUGGCAAAAAGCAUGCUGAAGCUUCGUGCAC
Regarding B21, the binding signal in test [1] came to 0.772 z-score; in test [2], 0.252 z-score; in test [3], 1.21 z-score; in test [4] it was 1.23 z-score.

B22: hsa-mir-449c (structured_RNA)
RNA: GGGAUACGACGGAGCACGGACCUUCUUGGGUGUACGAAGUUUCAGCGCGGCUGUUAAUGAUUUUAACAGUUGCGCUGAAGCUUCGUGCAC
Take B22: the binding signal was 0.758 z-score in test [1], 0.49 z-score in test [2], -0.184 z-score in test [3] and -0.518 z-score in test [4].
